Assay results as given in US8901295B2 (Institut National de la Sante et de la Recherche Medicale …, priority 2009, dated 2014).

By UniProt entry, the sequences of proteins in these tests, tags left out. Residues count along the entry.
UniProt P23284, 34-216: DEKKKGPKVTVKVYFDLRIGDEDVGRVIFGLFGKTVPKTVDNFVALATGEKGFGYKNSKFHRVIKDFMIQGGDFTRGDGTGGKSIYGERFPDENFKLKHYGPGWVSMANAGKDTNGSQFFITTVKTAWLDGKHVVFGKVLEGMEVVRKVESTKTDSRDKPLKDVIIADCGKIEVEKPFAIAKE

Target: Cyclophilin B (CypB) (Homo sapiens (Human), UniProt P23284)
Test: Cyclophilin PPIase enzymatic assay (chymotrypsin coupled), CypB
Assay type: biochemical
Conditions: activity test at 100 μM on CypB
Experimental: Cyclophilin A, B protein carrying a hexahistidine tag (His-Tag) at the C-terminus, were expressed in Escherichia coli and purified. Briefly, cultures of C41(DE3) cells were grown at 37° C. for ˜1 h until the culture reached an optical density of 0.6 at 600 nm, and induced with 1 mM isopropyl β-D-thiogalactoside for 4 h at 37° C. or overnight at 22° C. for cylophilin A and cyclophilin B, respectively. Cell pellets (1 L) were resuspended in a lysis buffer (20 mM NaH2PO4 (pH 7.8), 300 mM NaCl, 7 mM β-mercaptoethanol, 1 mg/ml lysozyme, 0.1 U/μl Desoxyribonuclease and complete protease inhibitor tablets (Roche)). […] The bound protein was eluted in 1 ml fractions with buffer: (20 mM NaH2PO4 (pH7.8), 300 mM NaCl, 250 mM imidazole, 7 mM β-mercaptoethanol, 10% glycerol) and monitored by the Bradford colorimetric assay. The purity of each cyclophilin was determined by Coomassie-stained SDS-PAGE analysis.
The reaction was initiated by adding 20 μL of 3.2 mM peptide substrate (Suc-Ala-Ala-cis-Pro-Phe-pNA) in LiCl/TFE solution with rapid inversion. […] Absorbance readings were collected every 1 s by spectrophotometer. […] The percentage inhibition of cyclophilin PPiase activity were calculated from slopes and values obtained represent an average of at least two independent measurements.

Question: Which “Inhibition (%)” value does the source give for `CCOC(=O)CNC(=O)NCc1ccccc1` [Compound F494] here?
Answer: The value was 22.7%.
